Values quoted from earlier work in publication PMC9469208 (Journal of Medicinal Chemistry, 2022).

Tested on: motor coordination of mice
Conditions: mouse, in vivo, ip; cited from earlier work

## CC[C@@H](C(N)=O)N1CCCC1=O [LEV, levetiracetam]
  TD50 (rotarod): >500 mg/kg
